Measured values as given in ChEMBL document CHEMBL3808358, “Rational Design of Small Peptides for Optimal Inhibition of Cyclooxygenase-2: Development of a Highly Effective Anti-Inflammatory Agent” (J Med Chem, 2016).

Experiment: Selectivity index, ratio of IC50 for ovine COX1 to IC50 for human recombinant COX2
Method in brief: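 Ovine COX-1 and human recombinant COX-2 with heme are preincubated with inhibitor for 10 min at 37 °C. Arachidonic acid is then added for 2 min at 37 °C. Prostaglandins are quantified by competitive AChE-tracer EIA, read at 420 nm. Four concentrations (10^-5 to 10^-8 M) are tested in triplicate. IC50 is taken from the dose-response curve of the mean % inhibition.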

Ratio IC50: 5
Compound: CC(C)C[C@H](NC(=O)CNC(=O)[C@@H](N)C(C)C)C(=O)O
